Experimental findings from article PMC3762362, “Three-color single molecule imaging shows WASP detachment from Arp2/3 complex triggers actin filament branch formation” (eLife, 2013) are described below.

What all share (settings): both partners purified
Experiment [1] has as its target Rabbit muscle actin (monomeric) (rabbit, UniProt P68135 1-377). Briefly: fluorescence polarisation; fluorescence anisotropy, direct titration of rabbit muscle actin into 20 nM VCA-AF488; 10 mM imidazole pH 7.0, 50 mM KCl, 1 mM EGTA, 1 mM MgCl2, 0.5 mM DTT, 0.1 mM ATP; room temperature. (In fluorescence polarisation assays a small probe gives low polarisation when free and higher when bound to something large.)

In experiment [2] the target is T1, Non-polymerizable Drosophila melanogaster 5C actin (D287A/V288A/D289A) (Drosophila melanogaster, UniProt P10987 3-376, D287A | V288A | D289A). Description: fluorescence polarisation; fluorescence anisotropy of 10 nM VCA-AF594 with increasing non-polymerizable Drosophila 5C actin or yeast Arp2/3 complex; single site binding isotherm.
Experiment [3] deals with T1, Non-polymerizable Drosophila …. Briefly: fluorescence polarisation; fluorescence anisotropy of 10 nM VCA-AF594 with increasing non-polymerizable Drosophila 5C actin in the presence of 300 nM yeast Arp2/3 complex; single site binding isotherm.

B1: VCA-AF488 (N-WASP VCA 430–505, S430C, C431A, AlexaFluor488 labeled) (domain or fragment)
chain: CASGRDALLDQIRQGIQLKSVADGQESTPPTPAPTSGIVGALMEVMQKRSKAIHSSDEDEDEDDEEDFEDDDEWED
modifications: AlexaFluor488 maleimide on the single Cys (S430C)
notes: N-WASP VCA amino acid residues 430–505; also called N-WASP VCA-AF488; AF488-labeled N-WASP VCA; source: E. coli BL21(DE3) T1R, purified (as the VCA dimers, then SOURCE15Q and Superdex 75); not shown: GST, N-terminal, cleaved
Consider B1, for which, in experiment [1], binding was characterised by a dissociation constant (Kd) of 220 nM.

B2: VCA-AF594 (N-WASP VCA 430–505, S430C, C431A, AlexaFluor 594 labeled) (domain or fragment)
chain: B1 chain
modifications: AlexaFluor 594 maleimide on the single Cys (S430C)
notes: N-WASP VCA amino acid residues 430–505, as for VCA-AF488; Same peptide as m12 with another dye; also called VCA-A594; source: E. coli BL21(DE3) T1R, purified (similar method to VCA-AF488); not shown: GST, N-terminal, cleaved
Consider B2, for which the Kd in experiment [2] was 70 ± 10 nM; in experiment [3], 105 ± 15 nM.

What is called Kd is a measure of binding affinity in units of concentration.
